In general, Kb refers to the equilibrium dissociation constant of an antagonist, usually derived from a functional assay.

By UniProt entry, the sequences of proteins in these tests, tags left out. Where a name states a change or a piece, a line headed by the entry shows the natural chain unless it says otherwise.
UniProt P43116: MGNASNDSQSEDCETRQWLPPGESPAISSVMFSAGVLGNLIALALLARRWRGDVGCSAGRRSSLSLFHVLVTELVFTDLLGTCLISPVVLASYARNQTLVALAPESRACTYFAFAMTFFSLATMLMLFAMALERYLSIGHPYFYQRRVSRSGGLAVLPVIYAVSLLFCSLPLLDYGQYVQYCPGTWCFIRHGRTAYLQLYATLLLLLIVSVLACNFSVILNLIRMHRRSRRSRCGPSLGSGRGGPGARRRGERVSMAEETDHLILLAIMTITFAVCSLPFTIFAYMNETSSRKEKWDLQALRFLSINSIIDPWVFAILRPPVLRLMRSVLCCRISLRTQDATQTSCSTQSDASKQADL

Series [1] has as its target Prostaglandin E2 receptor EP2 subtype (Homo sapiens) (UniProt P43116). Put plainly: Antagonist activity at EP2 receptor (unknown origin) expressed in rat C6 cells assessed as inhibition of PGE2-induced response. It is filed as cell-based.
For series [2] the target is unchanged. Nature of the series: Competitive antagonist activity at human EP2 receptor assessed as inhibition of PGE2-induced response.
In another series the test system is EP2 receptor. Nature of the series: Therapeutic index, ratio of CC50 for rat C6 cells to KB for EP2 receptor (unknown origin). The format is cell-based. The settings on record: read-out: TI.

The structures appear in SMILES notation.

For `Cc1cc2ccccc2n1CCNC(=O)c1ccc(C(=O)O)cc1`, the Kb in series [1] was 245 nM.
Take `COc1cc(/C=C/C(=O)NCCn2c(C)cc3ccccc32)cc(OC)c1OC`: the Kb in series [2] was 2.2 nM.
As for `CCN(CC)c1ccc(C(=O)NCCn2ccc3ccccc32)cc1`, the Kb in series [1] is 62.9 nM.
On the same count and under the same terms, the same measure for `Cc1[nH]c2ccccc2c1CCNC(=O)c1ccc(N2CCOCC2)cc1`: 28.6 nM.
In the case of `Cc1cc2ccccc2n1CCNC(=O)c1ccc(-c2nnn[nH]2)cc1`, the selectivity ratio in the series with EP2 receptor is over 13400.

(Values after ChEMBL document CHEMBL3286257, “Development of second generation EP2 antagonists with high selectivity” (Eur J Med Chem, 2014).)
